Assay results as given in US8115007B2.

Tests used:
[1] = Solubility of DAP Hemisulfate in water and ethanol at 25° C.
[2] = Stability of TAP/K2-DHTA complex on exposure to air; conditions: exposed to air

Row | Substance | solubility in ethanol ([1]; ethanol) | solubility in water ([1]; water) | stability (oxygen sensitivity, discoloration) [2]
1 | 2,6-diaminopyridine hemisulfate | less than 0.15% | about 1.5% | –
2 | Tetraaminopyridinium dipotassium dihydroxyterephthalate complex | – | – | discolored to orange and then light brown within a week
